In US20030039628A1, “Activation and protection of T-cells (CD4+ and CD8+) using an H2 receptor agonist and other T-cell activating agents” (priority 1998, published 2003):

What was measured:
T-cells and NK-cells = assay: MO-induced cell death (apoptosis) of T-cells and NK-cells, flow cytometry; assay type: cell-based, human; conditions: 100 U/ml
Experimental: In this Example, apoptotic morphology of lymphocytes exposed to MO was monitored by staining cells with a dye mix containing acridine orange (10:g/ml; Sigma) and ethidium bromide (10:g/ml; Sigma), both prepared in phosphate buffered saline. One microliter (1:1) of dye mix was added to 25:1 of cells suspension (1-2×10^6/ml) in siliconized test tubes. Thereafter, 10:1 of the cell suspension was placed on a glass slide and immediately counted in a fluorescence microscope (Nikon) under times forty (×40) magnification with qualification of dead, living, apoptotic and non-apoptotic cells. (See Hellstrand, K., et al. J. Immunol., 153: 4940-4947 (1994); Hansson, M., et al., J. Immunol. 156:42-47 (1996)).
Approximately 5-fold higher concentrations of exogenous hydrogen peroxide are required to induce apoptosis in CD3e^+ T-cells than in CD56^+ NK-cells. (See Hansson M., et al., supra). Cell death in lymphocytes was monitored by gating nonviable T-cells or NK-cells after exposure to MO, with and without histamine or catalase. A gate with reduced forward scatter and increased right angle scatter characteristic of apoptosis was employed in these studies. (See Hansson M., et al., supra; Mizgerd J. P., et al., J. Leukoc. Biol. 59:189 (1996); herein incorporated by reference; gate also described in Example 1).

[1] = tested on: CD69 expression on T-cells; assay: CD69 expression on T-cells incubated with or without autologous monocytes (MO), flow cytometry; assay type: cell-based, human
Experimental: To study the activation characteristics of T-cells in the presence and absence of MO, T-cell activation compounds, H2-receptor agonists, and H2O2 scavengers, peripheral venous blood was obtained as freshly prepared leukopacks from healthy blood donors at the Blood Centre, Sahlgren's Hospital, Göteborg, Sweden. The blood (65 ml) was mixed with 92.5 ml Iscove's medium, 35 ml 6% Dextran (Kabi Pharmacia, Stockholm, Sweden) and 7.5 ml acid citrate dextrose (ACD) (Baxter, Deerfield, Ill.). After incubation for 15 minutes at room temperature, the supernatant was carefully layered onto Ficoll-Hypaque (Lymphoprep, Myegaard, Norway). Mononuclear cells (MNC) were collected at the interface after centrifugation at 380 g for 15 minutes at room temperature, washed twice in PBS and resuspended in Iscove's medium supplemented with 10% human AB^+ serum. During all further separation of cells, the cell suspensions were kept in siliconized test tubes (Vacuette, Greiner, Stockholm).
The MNC were further separated into lymphocyte and monocyte (MO) populations using the counter-current centrifugal elutriation (CCE) technique originally described by Yasaka and co-workers (Yasaka, T. et al., J. Immunol., 127:1515) with modifications as described in Hansson, M., et al. (J. Immunol., 156: 42 (1996); hereby incorporated by reference). […]
Flow cytometry was used in the experiments described below to identify the various sub-populations of T-cells. […] The effects of MO exposure in the presence and absence of histamine and T-cell activation compounds were determined using the CD69 T-cell activation marker. […]
The following protocol was used in experiments reporting the detection of surface antigens of cell populations. […] The cells were washed twice in PBS and resuspended in 500:1 sterile filtered PBS and analyzed by use of flow cytometry on a FACSort with a Lysys II software program (Becton & Dickenson). […] The flow rate was adjusted to <200 cells×s^− and at least 5×10^3 cells were analyzed for each sample, if not otherwise stated. […]

IL-2: cytokine synthesized by T-cells; T-cell activating compound
effect of concomitant treatment on MO-induced cell death and on histamine protection (T-cells and NK-cells): unaffected
fraction of CD3e+ cells that acquired CD69 ([1]; IL-2 100 U/ml, 16 hours, absence of MO): Approximately one fourth
CD4+ cells with induced CD69 ([1]; IL-2, absence of MO): approximately 20%
percentage of CD3+ cells displaying the CD69 marker ([1]; with MO, IL-2 alone, absence of catalase): greater than 4%
